Experimental data from PubChem BioAssay AID485273 (Sanford-Burnham Center for Chemical Genomics, 2010).
This is a selection; strong and weak results do not stand in their true shares. The source made the active and inactive calls. No stated cut-off is given here; in the data, active means inhibition above about 45% (passing the limit was not always enough); inconclusive means no clear call, values can overlap the other calls.

By UniProt entry, the sequences of proteins in these tests, tags left out.
UniProt P61088, whole entry, looked up: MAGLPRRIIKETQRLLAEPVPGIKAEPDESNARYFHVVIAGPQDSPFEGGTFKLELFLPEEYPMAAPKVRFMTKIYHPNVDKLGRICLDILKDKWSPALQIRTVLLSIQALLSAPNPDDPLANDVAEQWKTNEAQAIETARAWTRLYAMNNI

What follows are compounds tested against Ubiquitin-conjugating enzyme E2 N (Homo sapiens) (UniProt P61088) (assay: UBC13 polyubiquitin chain formation inhibitors, primary screen, biochemical, TR-FRET, uHTS (AID 485273)). Conditions: at 20 µM, hits give high values.

SMILES | inhibition
CCC(=O)N(c1ccccc1)C1(COC)CCN(CCc2cccs2)CC1 | inactive: 2.9%
CCC(=O)N(c1ccccc1)C1(COC)CCN(CCn2nnn(CC)c2=O)CC1 | inactive: -19%
